Apparent affinities of Ab-91 variants for a coronavirus HR2 peptide

From the AlphaSeq antibody data of Engelhart et al. 2022 (doi:10.1038/s41597-022-01779-4), copy in the FLAb collection.

All variants were tested on one target, the spike HR2 peptide PDVDLGDISGINAS (SARS-CoV-2).

Parent scFv Ab-91: VL joined to VH by a 15-residue (Gly4Ser)3 linker. Changes lie in the heavy chain CDRs alone.
VL: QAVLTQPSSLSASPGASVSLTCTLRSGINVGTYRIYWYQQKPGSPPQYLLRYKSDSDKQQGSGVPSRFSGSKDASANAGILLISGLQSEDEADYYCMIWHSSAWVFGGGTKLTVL
VH: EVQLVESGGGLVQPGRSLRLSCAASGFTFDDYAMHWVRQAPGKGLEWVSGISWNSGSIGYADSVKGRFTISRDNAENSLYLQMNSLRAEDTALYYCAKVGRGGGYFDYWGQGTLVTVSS

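The parent was found by panning a naive human phage display library on the peptide. AAYL51 was designed without a model: most single CDR substitutions and a random sample of double and triple ones. Affinity was read by AlphaSeq, a pooled yeast mating assay with surface-displayed partners. After mating in shaken culture at 30 °C for 16 h, diploids were selected and their barcode pairs sequenced. A regression on co-assayed BCL2-family reference pairs converts the normalised counts of each replicate to an apparent Kd. The assay was run in three technical replicates.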

Variants are written as CDR1, CDR2 and CDR3 of the heavy chain (limits as in the source). Parent: GFTFDDYAMH, GISWNSGSIGYADSVK, VGRGGGYFDY. Every variant below is changed at G103 of the VH (sequential numbering). Values are apparent Kd, the geometric mean of the replicates that gave a signal; lower means stronger binding. Where no diploid with the target was found in any replicate, the entry reads "nd": below detection, most likely a poor binder, though not proof of it. Nonspecific signal, from three strains lacking the peptide, appeared in 21% of pairings of library AAYL51, centred on 34 µM (5% of these signals below 1.8 µM); values are not corrected for it. For each scFv, signals with the empty controls are counted beside the result. For reference, the parent read 72 nM as the reference entry and 7.5 nM as a member of this library.

- GFTFDDYAMH / GFSWNSHSIGYADSVK / VGRGTGYFDY -> nd (0 of 3 replicates; controls 1 of 9)
- GFTFDDYAMH / GISWNSGSIGYLDSVK / VGRGHGYQDY -> 230 nM (3 of 3 replicates; controls 5 of 9)
- GFTFDDYAMH / GCSWNSGSIGKADSVK / VGRGKGYFDY -> nd (0 of 3 replicates; controls 0 of 9)
- GFTFDDYAMH / GISWNSGSIGAADSVK / FGRGEGYFDY -> 740 µM (1 of 3 replicates; controls 6 of 9)
- GFTFDDYAMH / GISWNSGSIGYVDSVK / VGRGWGYFDY -> 12 µM (3 of 3 replicates; controls 8 of 9)
- GFTFDDAAMH / GISWNSGSIGYAHSVK / VGRGYGYFDY -> nd (0 of 3 replicates; controls 0 of 9)
- GFTFDDYAMH / GISWNSGSIGYADSVK / VGRLKGYFDY -> 780 µM (1 of 3 replicates; controls 2 of 9)
- GLTFDDYAMH / GISWNSGSIGYADSVK / VGRGPGYFDY -> nd (0 of 3 replicates; controls 0 of 9)
- GFMFDDYAVH / GISWNSGSIGYADSVK / VGRGRGYFDY -> nd (0 of 3 replicates; controls 1 of 9)
- GFTFDDYAMH / GISWNPGSIGYADSVK / VGRGMDYFDY -> 14 µM (2 of 3 replicates; controls 0 of 9)
- GFTFDDYAMH / GISWNFGEIGYADSVK / VGRGAGYFDY -> nd (0 of 3 replicates; controls 0 of 9)
- GFTFDDYAMH / GESWNSGSIGYADSVK / VGRSIGYFDY -> 24 µM (1 of 3 replicates; controls 2 of 9)
- GFTFDDYAMH / GISWNIGSIGYADSVK / VGRVCGYFDY -> nd (0 of 3 replicates; controls 0 of 9)
- GFTSDDYAMH / GISWNSGSIGYADSVK / VGRGPKYFDY -> 18 µM (2 of 3 replicates; controls 5 of 9)
- GFTKDDYAMH / GISWNSGSIGYADSVK / VGHGMGYFDY -> 5.7 µM (1 of 3 replicates; controls 0 of 9)
- GFTFDDYAMH / GISWNSGSILHADSVK / VGRGRGYFDY -> 44 µM (1 of 3 replicates; controls 1 of 9)
- GFTFDDYAMH / GISPNSGSIGYADSVK / VGRGNGIFDY -> 23 nM (3 of 3 replicates; controls 3 of 9)
- GFTFDDYAMH / GISWRSGSIGYADSVK / VGRGHGYFDY -> nd (0 of 3 replicates; controls 0 of 9)
- GFTFDDYAMH / GISWNSGSPGYADSVK / VGRGAWYFDY -> nd (0 of 3 replicates; controls 4 of 9)
- GFTFDFYAMH / GISVNSGSIGYADSVK / VGRGNGYFDY -> nd (0 of 3 replicates; controls 0 of 9)
- GFTFDDHAMH / GISWNSGSDGYADSVK / VGRGHGYFDY -> 26 µM (1 of 3 replicates; controls 2 of 9)
- GFTFDYYAMH / GISWNSGSIGYADSVK / VGRGMGYFDY -> nd (0 of 3 replicates; controls 0 of 9)
- GFTFDDYAMH / GISWNSGSIKYDDSVK / VGRGYGYFDY -> 130 µM (1 of 3 replicates; controls 0 of 9)
- GFTFDDYAMH / GISSNSGSIGYADSSK / VGRGIGYFDY -> nd (0 of 3 replicates; controls 2 of 9)
- GFTFDDYAMH / GISWNSGSIGYLDSVK / VGRGIGYFDY -> 8.9 nM (3 of 3 replicates; controls 1 of 9)
- GFTFDTYAMH / GISWDSGSIGYADSVK / VGRGCGYFDY -> 85 µM (1 of 3 replicates; controls 2 of 9)
- GFTFDDYVMH / GISWNSGSIGYADSRK / VGRGIGYFDY -> nd (0 of 3 replicates; controls 0 of 9)
- GFTFDDYAMH / GISWNSGSIGYADSFK / MGRGQGYFDY -> 1.3 µM (1 of 3 replicates; controls 0 of 9)
- EFTFDDYAMH / GISWNSGSIGYADSVK / VGRGSGYFDE -> 65 µM (3 of 3 replicates; controls 6 of 9)
- GFTFDDYAMH / GISWNSGSIGYCDQVK / VGRGYGYFDY -> nd (0 of 3 replicates; controls 1 of 9)
- GFTFDDYAMH / GISWNSGSIGYADSVK / TGRGYGYFDY -> nd (0 of 3 replicates; controls 1 of 9)
- GFTFDDYAMH / GISWNSGFIEYADSVK / VGRGYGYFDY -> nd (0 of 3 replicates; controls 0 of 9)

The last 4 entries again:

| CDR-H1 | CDR-H2 | CDR-H3 | Kd (apparent) | detected | empty controls |
|---|---|---|---|---|---|
| EFTFDDYAMH | GISWNSGSIGYADSVK | VGRGSGYFDE | 65 µM | 3 of 3 | 6 of 9 |
| GFTFDDYAMH | GISWNSGSIGYCDQVK | VGRGYGYFDY | nd | 0 of 3 | 1 of 9 |
| GFTFDDYAMH | GISWNSGSIGYADSVK | TGRGYGYFDY | nd | 0 of 3 | 1 of 9 |
| GFTFDDYAMH | GISWNSGFIEYADSVK | VGRGYGYFDY | nd | 0 of 3 | 0 of 9 |